The results in this text go back to US4622337A, “2,2-dimethyl-3-(2-halovinyl)cyclopropane carboxlic acid ester pesticides” (priority 1972, dated 1986).

Experiment [1] concerns female flies (houseflies). In words: Synergisability with sesamex, 2 μg per fly pretreatment. The experiment is classed as in vivo, Musca domestica. Conditions: for LD 50 active compound + synergist: pretreated with 2 μg. per fly sesamex; for LD 50 active compound only: untreated flies. As for the experimental part: (§1) Female flies were treated on the thorax with a one microliter drop of insecticide dissolved in acetone. Two replicates of 15 flies were used at each dose rate and 6 dose rates were used per compound under test. After treatment, the flies were maintained at a temperature of 20° C.±1° and kill was assessed 24 and 48 hours after treatment. LD50 values were calculated in micrograms of insecticide per fly and relative toxicities were calculated from the inverse ratios of the LD50 values. (see Sawicki et al, Bulletin of the World Health Organization, 35,893, (1966) and Sawicki et al, Entomologia and Exp. Appl. 10, 253, (1967)).
The following results were obtained

Experiment [2] concerns mustard beetles (Phaedon cochleariae Fab). Briefly: Relative toxicity to mustard beetles, topical micro drop. It counts as in vivo. Conditions: 5-benzyl-3-furylmethyl (1R)-trans-chrysanthemate = 1000, inverse ratio of LD50, 48 hours. On the procedure:
(§2) The toxicity of these new esters was tested by the procedure described in detail in our above mentioned application and the following results were obtained:
(§3) The insecticidal acitivity of the esters of the invention was assessed against houseflies and mustard beetles using the following techniques:
Acetone solutions of the test compound were applied ventrally to adult mustard beetles using a micro drop applicator. The treated insects were maintained for 48 hours after which time kill is assessed. Two replicates of 40 to 50 mustard beetles were used at each dose level and 3 to 4 dose levels were used for each compound. Again, LD50 values were calculated and relative toxicities were calculated for the inverse ratios of LD50 (see Elliott et al, J. Sci. Food Agric. 20, 561, (1969)).
(§4) Relative toxicities were calculated by comparison with 5-benzyl-3-furylmethyl(1R)-trans-chrysanthemate which is one of the most toxic chrysanthemate esters known to houseflies and mustard beetles, its toxicity being about 24 times that of allethrin to houseflies and 65 times that of allethrin to mustard beetles.

Experiment [3] has as its system houseflies (Musca domestica). Briefly: Relative toxicity to houseflies, topical drop on thorax. It counts as in vivo. Conditions: 5-benzyl-3-furylmethyl (1R)-trans-chrysanthemate = 1000, inverse ratio of LD50, female flies. As for the experimental part: as §2, §3, §1, §4
[4] abbreviates: listed as 5-benzyl-3-furylmethyl (1R)--trans-chrysanthemate.

For the molecule `CC(C)=CC1C(C(=O)OCc2coc(Cc3ccccc3)c2)C1(C)C` (racemic) [5-benzyl-3-furyl methyl (1RS)--cis-trans-chrysanthemate, reference compound], in experiment [1], the “LD 50 active compound + synergist” value is listed as 0.00079 μg. per female fly and the “LD 50 active compound only” value stood at 0.010 μg. per female fly.

`CC(C)=C[C@@H]1[C@@H](C(=O)OCc2coc(Cc3ccccc3)c2)C1(C)C` [Bioresmethrin, 5-benzyl-3-furylmethyl (1R)--trans-chrysanthemate, reference compound]: the figures for the “Relative Toxicity, Mustard Beetles” value in experiment [2] and in experiment [2] (setting [4]) were 1,000 and 1000, respectively. In addition, the “Relative Toxicity, Houseflies” value is listed as 1,000 in experiment [3] and 1000 in experiment [3] (setting [4]). In addition, in experiment [1], the “LD 50 active compound + synergist” value was 0.00057 μg. per female fly. For the same molecule, in experiment [1], the “LD 50 active compound only” value was 0.0054 μg. per female fly.
